# From PubChem BioAssay AID1346984 (Tox21, 2019)
# The list shows a part of the results, in another mix than the full data. Inconclusive results are not listed. Calls of active or inactive are those of the source. Calls come from the whole dose curve; as a rule, active = well fitted activation curve with a large enough effect in the repeat runs; inconclusive = weak or mixed curves; inactive = no such curve, though single readings can be large or run the other way.
# Biological target: Nuclear receptor subfamily 1 group I member 2 (Homo sapiens) (UniProt O75469)
# Assay: CYP3A4 induction through human pregnane X receptor (PXR) by small molecules, qHTS assay; note: nearly all actives have a fitted effect of over 40% in size
# Conditions: DPX-2 HepG2 PXR, CYP3A4-luciferin luminescence, 24 h; at 46.1 µM (top of the series)
# Description: National Center for Advancing Translational Sciences [NCATS]
# NIH Chemical Genomics Center [NCGC]
# U.S. Environmental Protection Agency [EPA]
# National Institutes of Environmental Health Sciences [NIEHS]
# National Toxicology Program [NTP]
# The Pregnane X receptor (PXR), a ligand activated nuclear receptor plays a critical role in the regulation of genes involved in drug metabolism and transporters. Activation of PXR is responsible for unwanted adverse drug reactions. PXR binds xenobiotics and when compounds interact with PXR enhances the expression of CYP3A genes. Identifying the compounds with the potential for PXR activation and CYP3A4 induction can be of importance in improving the efficacy of drugs with less toxicity and avoiding drug-drug interactions.
# DPX-2 (Puracyp, Inc.) cell lines, used for screening against human PXR activation has HepG2 cells co-transfected with a PXR response element and a luciferase construct containing CYP3A4 promoter. […]
# DPX-2 cells were dispensed at 2,000 cells per well in 5uL of assay medium into white, solid-bottom 1536-well plates using a Multidrop Combi dispenser (Thermo Scientific). […] Then 5ul One-Glo assay reagent (Promega) was added to each plate by an FRD and following 30 min incubation at room temperature, luciferase activity was quantified on a ViewLux plate reader (Perkin Elmer).
# % is set by controls: 0 for no effect and ±100 for the full control effect.
row,SMILES,activation
1,O=C(OC1CN2CCC1CC2)c1ccccc1 (configuration not stated),inactive: 0.497%
2,CN(C(=O)Cc1ccccc1)[C@H]1CC[C@@]2(CCCO2)C[C@@H]1N1CCCC1,inactive: -2.63%
